Our source for the IC50 values is PMC8452302 (CPT: Pharmacometrics & Systems Pharmacology, 2021).

Amino acid sequences for entries named in this document (tags omitted). A change or cut given only in a name is not applied to a line headed by its entry.
UniProt Q9UNQ0: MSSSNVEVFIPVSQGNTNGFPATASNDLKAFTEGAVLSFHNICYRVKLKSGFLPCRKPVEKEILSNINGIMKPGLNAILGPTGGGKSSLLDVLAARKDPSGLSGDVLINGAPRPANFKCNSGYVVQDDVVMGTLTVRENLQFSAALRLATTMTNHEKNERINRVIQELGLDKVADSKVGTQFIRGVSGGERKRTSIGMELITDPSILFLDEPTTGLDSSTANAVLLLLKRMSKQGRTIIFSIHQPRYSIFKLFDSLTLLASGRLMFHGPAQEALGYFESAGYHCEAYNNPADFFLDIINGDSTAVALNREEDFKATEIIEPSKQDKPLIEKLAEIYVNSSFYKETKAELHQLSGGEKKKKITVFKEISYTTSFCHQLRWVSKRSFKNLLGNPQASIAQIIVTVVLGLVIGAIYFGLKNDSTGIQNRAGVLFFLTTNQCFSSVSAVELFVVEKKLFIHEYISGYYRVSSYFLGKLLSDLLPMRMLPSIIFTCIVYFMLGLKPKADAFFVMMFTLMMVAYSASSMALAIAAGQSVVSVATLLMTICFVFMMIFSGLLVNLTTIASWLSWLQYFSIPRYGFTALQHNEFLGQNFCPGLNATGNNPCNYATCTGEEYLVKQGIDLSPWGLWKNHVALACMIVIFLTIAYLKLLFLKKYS

A word on the IC50: it is the concentration that inhibits the measured activity by half.

The assay deals with BCRP (Homo sapiens, UniProt Q9UNQ0). Description: In vitro BCRP inhibition, HEK293-BCRP membrane vesicles, rosuvastatin probe. Format: biochemical.

With `CO[C@H]1/C=C/O[C@@]2(C)Oc3c(C)c(O)c4c(O)c(c(/C=N/N5CCN(C)CC5)c(O)c4c3C2=O)NC(=O)/C(C)=C\C=C\[C@H](C)[C@H](O)[C@@H](C)[C@@H](O)[C@@H](C)[C@H](OC(C)=O)[C@@H]1C` [Rifampicin], it took 14.9 µM to reach half-maximal inhibition (IC50).
